Experimental data: patent US20140205582A1, “MEGAKARYOCYTE PROGENITOR CELLS FOR PRODUCTION OF PLATELETS” (CELLERANT THERAPEUTICS, INC., priority 2011, published 2014)
“Also recorded” adds a separate entry of the source.

Tested on: human CD34+ cells
Assay: Expansion of CD34+ cells into MKPs in serum-free culture
Assay type: cell-based
Excerpt: Isolation of human CD34^+ cells. G-CSF mobilized peripheral blood was harvested from healthy donors via leukapheresis (see, e.g., Kawamoto et al. (2009) Stem Cells 27:2857). CD34+ cells were positively selected using magnetic beads (Dynal, Lake Success, N.Y.) linked to anti-CD34 monoclonal antibody on an Isolex Device (Baxter, Deerfield, Ill.). CD34^+ cells were enriched to 96-98% purity. Aliquots of 15-20×10^6 cells/ml were cryopreserved until use.
Expansion of CD34^+ cells. CD34^+ cells from donors were thawed, pooled as indicated, and seeded at 5×10^5 cells/ml in serum-free X-vivo 15 medium (Lonza, Walkersville, Md.) supplemented with IX GlutaMAX (Invitrogen, Carlsbad, Calif.). Cytokines were added as follows. […] The active range for TPO mimetic was 0.1-100 nM. IL-1α (Peprotech, Rocky Hill, N.J.) was typically used at 10 ng/ml, with an active range 1-200 ng/ml tested. IL-9 was typically used at 60 ng/ml IL-9, with an active range of 1-200 ng/ml. HSA (purified human serum albumin protein) was typically used at 1%, with an active range of 0.2-4%. Cultures were incubated at 37° C. in a humidified atmosphere containing 5% carbon dioxide. Viable cells were counted daily and cell concentration was readjusted to about 5×10^5 cells/ml by the addition of fresh medium with cytokines.
Analysis of MKPs. Cell surface marker expression was analyzed by flow cytometry using CD15b, CD33, CD34, CD41, CD42a, CD90, and CD184 antibodies. Prior to antibody staining, cells were washed with HBSS containing 2% BSA and blocked with rat and mouse IgG (SouthernBiotech, Birmingham, AL) for 10 minutes at 4° C. Cells were incubated for 30 minutes at 4° C. with following monoclonal antibodies: CD34-PE (Miltenyi Biotec, Auburn, Calif.), CD41a-APC, CD42a-FITC, CD33-PE-Cy7 (BD Pharmingen, San Jose, Calif.), CD15-biotin and streptavidin-PE-TxRed (eBioscience, San Diego, Calif.). Cells were washed with staining media and FACS analysis was performed on FACS Aria (BD Bioscience).

## HSA: purified human serum albumin protein
1% HSA with 10 nM TPO mimetic, 10 ng/ml IL-1a, IL-9, 8 days
  effect on MKP cell expansion: further increased MKP cell expansion; also recorded: Cell numbers increased significantly; also recorded: leads to higher fold expansion
1% HSA, 8 days
  effect on percentage / composition of CD34+CD41+ cells: slight reduction in the percentage of CD34+CD41+ cells; also recorded: the CD34+CD41+ population was maintained; also recorded: slightly reduced relative numbers of the potent CD34+CD41+ cells; also recorded: the cellular composition of the expanded MKPs was maintained
  effect on total yield of CD34+CD41+ cells: increases the total yield of CD34+CD41+ cells; also recorded: higher total yield of CD34+CD41+ cells
1% HSA, shaker flasks, 10 nM TPO mimetic, 10 ng/ml IL-1a, 60 ng/ml IL-9, 8 days, three cultures
  increase in cell numbers: ~50%
Concentration in CD34+ expansion medium
  active range: 0.2-4%

B1: IL-3: interleukin-3, multilineage cytokine/growth factor (protein, UniProt P08700 20-152, looked up)
Interleukin-3: APMTQTTPLKTSWVNCSNMIDEIITHLKQPPLPLLDFNNLNGEDQDILMENNLRRPNLEAFNRAVKSLQNASAIESILKNLLPCLPLATAAPTRHPIHIKDGDWNEFRRKLTFYLKTLENAQAQQTTLSLAIF
Added to the growth media
  effect on CD184 (CXCR4) expression on MKPs: reduced expression of CD184 (CXCR4) on the MKPs
